Laboratory results published in ChEMBL document CHEMBL1132476, “Design and synthesis of novel alpha(1)(a) adrenoceptor-selective antagonists. 1. Structure-activity relationship in dihydropyrimidinones” (J Med Chem, 1999).

By UniProt entry, the sequences of proteins in these tests, tags left out. Where a name states a change or a piece, a line headed by the entry shows the natural chain unless it says otherwise.
UniProt P15823, whole entry, looked up: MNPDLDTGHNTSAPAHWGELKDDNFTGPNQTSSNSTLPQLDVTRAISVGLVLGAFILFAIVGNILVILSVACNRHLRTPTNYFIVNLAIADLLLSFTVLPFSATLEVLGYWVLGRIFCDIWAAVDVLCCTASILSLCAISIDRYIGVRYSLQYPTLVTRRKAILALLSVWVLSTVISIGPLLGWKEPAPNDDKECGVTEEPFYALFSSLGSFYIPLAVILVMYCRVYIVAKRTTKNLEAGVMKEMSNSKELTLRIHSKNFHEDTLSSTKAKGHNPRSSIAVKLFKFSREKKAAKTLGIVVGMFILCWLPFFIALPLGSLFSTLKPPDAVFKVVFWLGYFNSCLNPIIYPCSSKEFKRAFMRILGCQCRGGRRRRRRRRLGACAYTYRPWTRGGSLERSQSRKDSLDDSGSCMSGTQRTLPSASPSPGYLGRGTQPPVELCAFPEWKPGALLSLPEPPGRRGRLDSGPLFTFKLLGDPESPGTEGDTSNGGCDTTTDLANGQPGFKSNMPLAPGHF
UniProt P23944, whole entry, looked up: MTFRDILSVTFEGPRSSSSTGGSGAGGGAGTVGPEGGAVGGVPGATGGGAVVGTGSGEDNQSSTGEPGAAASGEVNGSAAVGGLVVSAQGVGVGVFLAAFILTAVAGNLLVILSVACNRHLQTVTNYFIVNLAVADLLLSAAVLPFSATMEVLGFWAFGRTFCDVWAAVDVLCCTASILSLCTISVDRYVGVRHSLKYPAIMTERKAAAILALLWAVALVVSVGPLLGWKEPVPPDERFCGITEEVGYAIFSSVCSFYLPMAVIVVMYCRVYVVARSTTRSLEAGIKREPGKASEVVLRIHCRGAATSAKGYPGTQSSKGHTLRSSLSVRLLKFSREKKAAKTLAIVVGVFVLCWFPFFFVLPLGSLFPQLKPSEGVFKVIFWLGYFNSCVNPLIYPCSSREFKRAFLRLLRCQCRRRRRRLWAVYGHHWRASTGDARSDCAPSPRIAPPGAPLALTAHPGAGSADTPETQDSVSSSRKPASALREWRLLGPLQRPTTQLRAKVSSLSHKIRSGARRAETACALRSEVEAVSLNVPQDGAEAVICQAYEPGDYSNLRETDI
UniProt P43140: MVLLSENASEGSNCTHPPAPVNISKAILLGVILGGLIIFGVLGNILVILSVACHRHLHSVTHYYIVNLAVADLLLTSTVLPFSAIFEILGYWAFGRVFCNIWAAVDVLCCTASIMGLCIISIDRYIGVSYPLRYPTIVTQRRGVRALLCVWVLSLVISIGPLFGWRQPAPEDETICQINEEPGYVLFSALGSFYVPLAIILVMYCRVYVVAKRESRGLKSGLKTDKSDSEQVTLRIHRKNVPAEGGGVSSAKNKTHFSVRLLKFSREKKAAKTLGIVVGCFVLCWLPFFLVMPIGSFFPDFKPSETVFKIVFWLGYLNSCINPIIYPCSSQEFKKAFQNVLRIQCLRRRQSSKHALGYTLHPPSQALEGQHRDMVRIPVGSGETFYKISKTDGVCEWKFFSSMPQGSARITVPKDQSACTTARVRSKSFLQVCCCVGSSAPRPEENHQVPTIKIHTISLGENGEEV
UniProt P25100, whole entry: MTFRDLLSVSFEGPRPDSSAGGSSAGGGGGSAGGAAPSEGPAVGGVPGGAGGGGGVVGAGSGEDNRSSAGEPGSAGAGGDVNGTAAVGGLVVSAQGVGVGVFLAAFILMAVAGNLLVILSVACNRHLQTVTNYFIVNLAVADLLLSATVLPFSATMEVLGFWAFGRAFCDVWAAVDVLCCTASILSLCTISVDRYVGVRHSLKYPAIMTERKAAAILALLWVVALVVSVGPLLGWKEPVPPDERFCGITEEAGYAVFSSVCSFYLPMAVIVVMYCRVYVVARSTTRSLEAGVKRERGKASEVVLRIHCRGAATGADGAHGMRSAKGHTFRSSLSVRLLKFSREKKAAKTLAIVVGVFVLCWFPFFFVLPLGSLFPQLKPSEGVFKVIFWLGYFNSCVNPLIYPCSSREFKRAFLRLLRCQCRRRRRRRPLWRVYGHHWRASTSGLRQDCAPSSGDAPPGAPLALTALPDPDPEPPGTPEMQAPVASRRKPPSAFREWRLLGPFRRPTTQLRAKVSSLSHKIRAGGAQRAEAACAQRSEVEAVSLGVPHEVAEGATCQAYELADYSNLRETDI
UniProt P35368, whole entry: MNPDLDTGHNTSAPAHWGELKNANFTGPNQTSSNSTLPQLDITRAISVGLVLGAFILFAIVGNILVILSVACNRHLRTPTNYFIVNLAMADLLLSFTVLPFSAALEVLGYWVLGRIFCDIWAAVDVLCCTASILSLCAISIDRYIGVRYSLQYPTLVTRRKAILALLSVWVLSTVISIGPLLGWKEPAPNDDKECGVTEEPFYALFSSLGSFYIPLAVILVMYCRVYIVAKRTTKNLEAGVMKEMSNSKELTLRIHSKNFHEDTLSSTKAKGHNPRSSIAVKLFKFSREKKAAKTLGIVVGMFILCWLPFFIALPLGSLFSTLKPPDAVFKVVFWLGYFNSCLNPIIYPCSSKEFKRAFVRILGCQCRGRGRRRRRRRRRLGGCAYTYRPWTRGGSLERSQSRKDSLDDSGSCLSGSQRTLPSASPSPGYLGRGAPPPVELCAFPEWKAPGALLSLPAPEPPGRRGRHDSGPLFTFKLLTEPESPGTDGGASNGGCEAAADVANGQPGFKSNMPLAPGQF

Tests used:
[1] = biological target: Adrenergic receptor alpha-1 (Rattus norvegicus) (UniProt P15823+P23944+P43140); assay: Antagonistic activity against Alpha-1 adrenergic receptor in rat prostate tissue using A61603 as agonist; assay type: functional, tissue-based; details: Prostate gland
[2] = biological target: T1, Alpha-1A adrenergic receptor (Homo sapiens, UniProt P35348); assay: In vitro binding affinity against Alpha-1A adrenergic receptor in isolated prostate tissue of human; assay type: tissue-based, Prostate gland
T1 sequence (P35348 whole entry): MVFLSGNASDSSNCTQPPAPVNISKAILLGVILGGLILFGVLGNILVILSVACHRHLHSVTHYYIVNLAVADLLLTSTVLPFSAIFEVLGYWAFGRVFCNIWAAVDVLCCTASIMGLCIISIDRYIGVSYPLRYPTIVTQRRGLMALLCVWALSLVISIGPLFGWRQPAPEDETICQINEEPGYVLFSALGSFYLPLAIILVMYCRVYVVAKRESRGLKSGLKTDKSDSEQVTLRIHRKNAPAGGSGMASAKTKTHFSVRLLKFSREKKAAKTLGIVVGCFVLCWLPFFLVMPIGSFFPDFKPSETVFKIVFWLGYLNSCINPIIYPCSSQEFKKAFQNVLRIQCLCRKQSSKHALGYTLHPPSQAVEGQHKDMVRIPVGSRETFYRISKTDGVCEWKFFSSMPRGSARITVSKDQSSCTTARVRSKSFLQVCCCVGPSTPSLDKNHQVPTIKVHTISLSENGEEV

[3] = biological target: Alpha-1D adrenergic receptor (Homo sapiens, UniProt P25100); assay: In vitro binding affinity against Alpha-1D adrenergic receptor of cloned human receptor.
[4] = biological target: Alpha-1B adrenergic receptor (Homo sapiens, UniProt P35368); assay: In vitro binding affinity against Alpha-1B adrenergic receptor of cloned human receptor.
[5] = biological target: T1, Alpha-1A adrenergic receptor; assay: In vitro binding affinity against Alpha-1A adrenergic receptor of cloned human receptor.

Row | SMILES | Kb [1] [µM] | Ki [2] [µM] | Ki [3] | Ki [4] | Ki [5]
1 | COc1cc2nc(N3CCN(C(=O)C4CCCO4)CC3)nc(N)c2cc1OC (stereo not given) [TERAZOSIN] | 0.025 |  |  |  | 
2 | CCC1=C(C(N)=O)C(c2ccc([N+](=O)[O-])cc2)N(C(=O)NCCCN2CCC(C(=O)OC)(c3ccccc3)CC2)C(=O)N1 (stereo not given) |  | 0.00019 | 0.74 µM and 0.42 µM and 0.29 µM | 0.36 µM and 0.13 µM and 0.16 µM | 0.0002 µM and 0.0019 µM and 0.0005 µM

Several values for one entry are separate records, joined by “and”; a condition that tells them apart may be missing. Equal values may be shown once.
